Amino acid sequences for entries named in this document (tags omitted). Residues count along the entry.
UniProt P19099, 25-503: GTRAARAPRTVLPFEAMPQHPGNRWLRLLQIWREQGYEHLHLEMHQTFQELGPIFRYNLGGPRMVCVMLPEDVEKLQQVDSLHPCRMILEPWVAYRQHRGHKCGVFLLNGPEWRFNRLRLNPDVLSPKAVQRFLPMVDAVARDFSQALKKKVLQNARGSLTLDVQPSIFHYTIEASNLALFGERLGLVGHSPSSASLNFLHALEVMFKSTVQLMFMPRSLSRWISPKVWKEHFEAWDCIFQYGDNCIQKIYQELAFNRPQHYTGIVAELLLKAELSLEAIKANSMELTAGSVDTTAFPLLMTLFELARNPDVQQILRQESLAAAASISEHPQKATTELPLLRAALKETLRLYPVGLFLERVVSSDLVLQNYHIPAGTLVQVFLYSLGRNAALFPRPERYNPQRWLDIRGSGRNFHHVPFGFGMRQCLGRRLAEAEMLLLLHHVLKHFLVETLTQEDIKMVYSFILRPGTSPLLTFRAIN
UniProt P15538, 25-503: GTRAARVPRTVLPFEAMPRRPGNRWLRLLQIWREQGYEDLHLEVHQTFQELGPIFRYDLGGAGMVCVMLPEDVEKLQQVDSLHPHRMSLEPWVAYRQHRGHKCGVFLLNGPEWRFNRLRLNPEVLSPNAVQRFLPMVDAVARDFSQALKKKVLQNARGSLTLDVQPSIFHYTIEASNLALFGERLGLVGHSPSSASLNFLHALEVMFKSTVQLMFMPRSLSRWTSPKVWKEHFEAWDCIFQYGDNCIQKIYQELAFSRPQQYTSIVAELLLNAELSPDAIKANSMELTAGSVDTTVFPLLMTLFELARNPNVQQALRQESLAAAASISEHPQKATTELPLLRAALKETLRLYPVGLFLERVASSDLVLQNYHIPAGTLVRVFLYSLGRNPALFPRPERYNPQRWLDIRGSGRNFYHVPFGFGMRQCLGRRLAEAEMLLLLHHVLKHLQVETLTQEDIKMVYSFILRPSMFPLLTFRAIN

In patent US9187429B2, “Phenyl-tetrahydroisoquinoline derivatives” (Hoffmann-La Roche Inc., priority 2012, dated 2015):

Columns and labels:
CYP11B2 = CYP11B2 (Homo sapiens (Human), UniProt P19099); assay: G-402 cellular enzyme assay, human CYP11B2 (aldosterone release); format: cell-based; details: G-402 cells expressing human CYP11B2, 1 μM Deoxycorticosterone
human CYP11B1 = human CYP11B1 (Homo sapiens (Human), UniProt P15538); assay: G-402 cellular enzyme assay, human CYP11B1 (cortisol release); format: cell-based; details: G-402 cells expressing human CYP11B1, 1 μM Deoxycortisol
Text: Herein we identified the use of the G-402 cell line as a host cell to ectopically express (transiently or stably) enzymes of the CYP11 family. Specifically we developed stable G-402 cells expressing ectopically human CYP11B1, human CYP11B2, human CYP11A1, cynmolgus CYP11B1 or cynomolgus CYP11B2 enzyme activity. Importantly the identified cell line G-402 expresses co-factors (adrenodoxin and adrenodoxin reductase) important for the activity of the CYP11 family and no relevant enzyme activity of the CYP11 family (in comparison to H295R cells) was detected in these cells. Therefore the G-402 cell line is uniquely suited as a host cell for the ectopic expression of enzymes from the CYP11 family.
The expression plasmids contains the ORF for either human/cyno CYP11B1 or CYP11B2 under the control of a suitable promoter (CMV-promoter) and a suitable resistance marker (neomycin). Using standard techniques the expression plasmid is transfected into G-402 cells and these cells are then selected for expressing the given resistance markers. Individual cell-clones are then selected and assessed for displaying the desired enzymatic activity using 11-Deoxycorticosterone (Cyp 11B2) or 11-Deoxycortisol (Cyp 11B1) as a substrate. […]
[formula] wherein, A is the maximum y value, B is the EC50 factor determined using XLFit, C is the minimum y value and D is the slope value. […]

SMILES: CC(C)C(=O)NC1CCCc2c(-c3ccc(C#N)cc3)cncc21 (racemic) [Example 9, (rac)-N-(4-(4-Cyanophenyl)-5,6,7,8-tetrahydroisoquinolin-8-yl)isobutyramide]
- EC50 (CYP11B2): 123 nM
- EC50 (human CYP11B1): 4190 nM
